CycPeptMPDB entries from one study

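Lipid, pH, incubation time, direction and concentration are not recorded in the data file. Other peptides of the study may be missing here. Peptides that the database sets to -10, its floor, are left out.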

PAMPA is the parallel artificial membrane permeability assay, which has no cells and reads passive diffusion.
Values are log10 P with P in cm/s, so -5 is more permeable than -7.

| SMILES | PAMPA (log10 cm/s) |
|---|---|
| CC(C)C[C@@H]1NC(=O)[C@@H](C)N(C)C(=O)[C@H]2CCCN2C(=O)[C@H](Cc2ccccc2)NC(=O)[C@@H](CC(C)C)NC(=O)[C@@H]2CCCN2C(=O)[C@@H](CC(C)C)N(C)C1=O | -5.51 |
| CC(C)C[C@@H]1C(=O)N(Cc2ccccc2)CC(=O)N2CCC[C@H]2C(=O)N(C)[C@H](CC(C)C)C(=O)N[C@@H](Cc2ccccc2)C(=O)N2CCC[C@@H]2C(=O)N(C)[C@@H](C)C(=O)N1C | -5.15 |
| CC(C)C[C@H]1NC(=O)CN(Cc2ccccc2)C(=O)[C@@H](C)N(C)C(=O)[C@@H]2CCCN2C(=O)[C@H](Cc2ccccc2)NC(=O)CN(Cc2ccccc2)C(=O)[C@H]2CCCN2C1=O | -5.57 |
| CC(C)C[C@@H]1C(=O)N[C@H](CC(C)C)C(=O)N2CCC[C@@H]2C(=O)N[C@H](CC(C)C)C(=O)N[C@@H](Cc2ccccc2)C(=O)N2CCC[C@H]2C(=O)N(C)[C@H](C)C(=O)N1C | -5.90 |
| CC(C)C[C@@H]1NC(=O)[C@H](C)N(C)C(=O)[C@H]2CCCN2C(=O)[C@H](Cc2ccccc2)NC(=O)[C@H](CC(C)C)N(C)C(=O)[C@@H]2CCCN2C(=O)[C@H](CC(C)C)NC1=O | -5.86 |
| CC(C)C[C@@H]1NC(=O)[C@H](C)N(C)C(=O)[C@H]2CCCN2C(=O)[C@H](Cc2ccccc2)NC(=O)[C@H](CC(C)C)N(C)C(=O)[C@@H]2CCCN2C(=O)[C@@H](CC(C)C)N(C)C1=O | -5.19 |
| CC(C)C[C@@H]1C(=O)N(Cc2ccccc2)CC(=O)N2CCC[C@@H]2C(=O)N[C@H](CC(C)C)C(=O)N[C@@H](Cc2ccccc2)C(=O)N2CCC[C@@H]2C(=O)N(C)[C@H](C)C(=O)N1C | -5.60 |
| CC(C)C[C@@H]1NC(=O)[C@H]2CCCN2C(=O)[C@H](CC(C)C)N(C)C(=O)[C@@H](CC(C)C)N(C)C(=O)[C@H](C)NC(=O)[C@H]2CCCN2C(=O)[C@H](Cc2ccccc2)NC1=O | -6.17 |
| CC(C)C[C@@H]1NC(=O)[C@H](C)N(C)C(=O)[C@@H]2CCCN2C(=O)[C@H](Cc2ccccc2)NC(=O)[C@@H](CC(C)C)NC(=O)[C@@H]2CCCN2C(=O)[C@H](CC(C)C)N(C)C1=O | -7.66 |
| CC(C)C[C@@H]1NC(=O)[C@H](C)N(C)C(=O)[C@H](Cc2ccccc2)NC(=O)CN(Cc2ccccc2)C(=O)[C@@H]2CCCN2C(=O)[C@@H](CC(C)C)N(C)C1=O | -4.88 |
| CC(C)C[C@@H]1NC(=O)[C@H](C)NC(=O)[C@@H]2CCCN2C(=O)[C@H](Cc2ccccc2)NC(=O)[C@H](CC(C)C)N(C)C(=O)[C@@H]2CCCN2C(=O)[C@@H](CC(C)C)N(C)C1=O | -6.74 |
| CC(C)C[C@@H]1C(=O)N[C@@H](Cc2ccccc2)C(=O)N2CCC[C@@H]2C(=O)N[C@H](C)C(=O)N(C)[C@@H](CC(C)C)C(=O)N(Cc2ccccc2)CC(=O)N2CCC[C@H]2C(=O)N1C | -6.38 |
| CC(C)C[C@@H]1NC(=O)[C@H](C)N(C)C(=O)[C@H]2CCCN2C(=O)[C@H](Cc2ccccc2)NC(=O)CN(Cc2ccccc2)C(=O)[C@@H]2CCCN2C(=O)[C@@H](CC(C)C)N(C)C1=O | -5.48 |
| CC(C)C[C@@H]1C(=O)N(C)[C@@H](CC(C)C)C(=O)N2CCC[C@@H]2C(=O)N(C)[C@@H](CC(C)C)C(=O)N[C@@H](Cc2ccccc2)C(=O)N2CCC[C@@H]2C(=O)N[C@H](C)C(=O)N1C | -5.50 |
| CC(C)C[C@@H]1NC(=O)[C@H](C)N(C)C(=O)[C@H]2CCCN2C(=O)[C@H](Cc2ccccc2)NC(=O)[C@@H](CC(C)C)NC(=O)[C@H]2CCCN2C(=O)[C@H](CC(C)C)N(C)C1=O | -5.78 |

2 of these entries, quoted again:

| SMILES | PAMPA (log10 cm/s) |
|---|---|
| CC(C)C[C@@H]1NC(=O)[C@H](C)NC(=O)[C@@H]2CCCN2C(=O)[C@H](Cc2ccccc2)NC(=O)[C@H](CC(C)C)N(C)C(=O)[C@@H]2CCCN2C(=O)[C@@H](CC(C)C)N(C)C1=O | -6.74 |
| CC(C)C[C@@H]1C(=O)N(Cc2ccccc2)CC(=O)N2CCC[C@H]2C(=O)N(C)[C@H](CC(C)C)C(=O)N[C@@H](Cc2ccccc2)C(=O)N2CCC[C@@H]2C(=O)N(C)[C@@H](C)C(=O)N1C | -5.15 |

Collected by the curators of CycPeptMPDB (Li et al. 2023) from Townsend et al. 2020, doi:10.26434/chemrxiv.13335941.v1.